The source of these data is PubChem BioAssay AID2177 (The Scripps Research Institute Molecular Screening Center, 2009).

By UniProt entry, the sequences of proteins in these tests, tags left out.
UniProt O95372, whole entry: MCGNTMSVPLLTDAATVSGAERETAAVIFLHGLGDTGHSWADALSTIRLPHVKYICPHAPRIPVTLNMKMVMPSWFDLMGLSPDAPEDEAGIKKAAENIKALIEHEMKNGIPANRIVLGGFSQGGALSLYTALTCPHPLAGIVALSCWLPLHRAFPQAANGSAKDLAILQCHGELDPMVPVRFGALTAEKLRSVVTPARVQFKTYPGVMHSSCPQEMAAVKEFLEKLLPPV

Molecules are shown by their SMILES. The entries are a selection whose mix differs from that of the whole data set. Some salts and complexes are drawn in separate pieces, as the source files them; their charges need not balance. Active and inactive are the calls of the source.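 How the source made its calls: active means inhibition above the screen-wide mean plus 3 SD, limit set per campaign (cut at about 26% in these data); inactive means the rest.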

In the assay the target is Acyl-protein thioesterase 2 (Homo sapiens) (UniProt O95372). Nature of the assay: LYPLA2 inhibitors, primary screen, counter-screen for PME1 inhibitor project, biochemical, fluorescence polarization, FP-Rh probe ABPP (AID 2177).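 Further: 0% = LYPLA2 with DMSO and 100% = wells lacking LYPLA2 enzyme.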 The settings on record: recombinant LYPLA2, FP-Rh probe fluorescence polarization; at 5.9 µM; stronger effect = higher value. (The purpose of a counterscreen is to sort out artefacts and off-target activity.)
By inhibition is commonly meant the drop in the measured response relative to a control, in per cent. `COc1ccc(OP(C)(=O)Nc2ccc(SC(F)(F)F)cc2)cc1` (configuration not stated): the inhibition is inactive: -5.17%.
As for `CCOC(=O)c1ccc(NP(C)(=O)Oc2ccc(F)cc2)cc1` (configuration not stated), the inhibition was inactive: 12.3%.
`CCN(CC)CCCOC(=O)C(O)(c1ccccc1)C1CCCCC1` (configuration not stated): the inhibition is inactive: -3.57%.
As for `O=[N+]([O-])c1cc([N+](=O)[O-])c(OC2CCCCC2O)c([N+](=O)[O-])c1` (configuration not stated), the inhibition was inactive: 2.8%.
For `CCCCCOc1ccc(NP(C)(=O)Oc2ccc(Cl)cc2Cl)cc1` (configuration not stated), the inhibition was inactive: 6.79%.
For `CP(=O)(Nc1ccccc1)Oc1ccc(F)cc1` (configuration not stated), the inhibition was inactive: 0.76%.
Take `CC(C)c1ccc(OP(C)(=O)Nc2ccc(SC(F)(F)F)cc2)cc1` (configuration not stated): the inhibition is inactive: -1.81%.
For the compound `CP(=O)(Nc1ccccc1F)Oc1ccccc1` (configuration not stated), the inhibition was inactive: 8.69%.
Take `O=C(OCCN1CCN(CCOCc2ccccc2)CC1)C(O)(c1ccccc1)c1ccccc1`: the inhibition is inactive: 0.2%.
As for `O=C(OC1CN2CCC1CC2)c1ccc([N+](=O)[O-])cc1` (configuration not stated), the inhibition is inactive: -2.36%.
As for `COc1ccc2c(c1O)-c1c(O)c(OC)cc3c1[C@H](C2)[N+](C)(C)CC3.O=[N+]([O-])c1cc([N+](=O)[O-])c([O-])c([N+](=O)[O-])c1[O-]`, the inhibition is inactive: 7.29%.
The figure for `CP(=O)(Nc1ccc(SC(F)(F)F)cc1)Oc1ccc(F)cc1` (configuration not stated) is inactive: -3.95%; for `CCOP(C)(=S)SCC(=O)NC(C)(CC)C(=O)O` (configuration not stated) it is inactive: 3.52%; for `CP(=O)(Nc1ccc2c(c1)OCCO2)Oc1ccccc1` (configuration not stated) it is inactive: -1.23%.
The figure for `Cc1ccccc1NP(C)(=O)Nc1ccccc1C` is inactive: -8.74%; for `COc1ccc(OP(C)(=O)Nc2cccc(Br)c2)cc1` (configuration not stated) it is inactive: 12%.
As to `COc1ccc(NP(C)(=O)Oc2ccccc2OC)cc1` (configuration not stated), the inhibition is inactive: 7.29%.
As to `CN(C)CCOC(=O)C(O)(c1ccccc1)C1CCCCC1` (configuration not stated), the inhibition is inactive: 9%.
The result for `O=[N+]([O-])c1cc([N+](=O)[O-])c(NCC2CCS(=O)(=O)C2)c([N+](=O)[O-])c1` (configuration not stated) reads inactive: -3%.
As to `Nc1ccc2c(ccc3cccnc32)n1.O=[N+]([O-])c1cc([N+](=O)[O-])c(O)c([N+](=O)[O-])c1`, the inhibition is inactive: -5%.
`CP(=O)(OC12CC3CC(CC(C3)C1)C2)OC12CC3CC(CC(C3)C1)C2`: the inhibition is inactive: 7.16%.
As for `CCOC(=O)c1ccc(NP(C)(=O)Oc2ccc(Cl)cc2)cc1` (configuration not stated), the inhibition is inactive: 7.27%.
Consider `COc1ccc(OP(C)(=O)Nc2ccc(Br)cc2)cc1` (configuration not stated), for which the inhibition is inactive: -3.98%.
Turning to `CCN(CC)CC(O)COC(=O)C(O)(c1ccccc1)C1CCCCC1` (configuration not stated), the inhibition was inactive: 4.55%.
Regarding `CCc1ccc(OP(C)(=O)Nc2cccnc2)cc1` (configuration not stated), the inhibition is inactive: -6.04%.
Consider `CP(=O)(Oc1ccccc1)N1CCOC1=O` (configuration not stated), for which the inhibition is inactive: -3.13%.
As to `O=C(OCCCN1CCCC1)C(O)(c1ccccc1)C1CCCCC1` (configuration not stated), the inhibition was inactive: -2.44%.
With `COc1ccccc1OP(C)(=O)Nc1c(C)n(C)n(-c2ccccc2)c1=O` (configuration not stated), the inhibition is inactive: 4.08%.
Consider `CP(=O)(Nc1ccc(Cl)cc1)Oc1ccc(F)cc1` (configuration not stated), for which the inhibition was inactive: 0.31%.
The figure for `COc1ccccc1OP(C)(=O)Nc1ccccc1Br` (configuration not stated) is inactive: 6.84%; for `CC(C)(C)c1ccc(OP(C)(=O)O)cc1` it is inactive: 4.91%; for `CN(C)C(=O)c1c([N+](=O)[O-])cc([N+](=O)[O-])cc1[N+](=O)[O-]` it is inactive: 3.39%.
Regarding `COc1ccccc1OP(C)(=O)Nc1ccc(Br)cc1` (configuration not stated), the inhibition was inactive: 0.85%.
For the compound `CN(C)CCOC(=O)C(O)(c1ccccc1)C1CCCC1` (configuration not stated), the inhibition is inactive: 5.03%.
Take `COc1ccc(OP(C)(=O)Nc2ccccn2)cc1` (configuration not stated): the inhibition is inactive: 1.2%.
The result for `Cc1c(NP(C)(=O)Oc2ccc(C(C)C)cc2)c(=O)n(-c2ccccc2)n1C` (configuration not stated) reads inactive: 0.34%; that for `O=[N+]([O-])c1cc([N+](=O)[O-])c(Nc2ccccn2)c([N+](=O)[O-])c1`, inactive: 9.58%.
The figure for `CCc1ccc(OP(C)(=O)O)cc1` is inactive: -3.35%; for `COc1ccccc1OP(C)(=O)Nc1ccc(C)cc1C` (configuration not stated) it is inactive: 6.98%; for `CP(=O)(Nc1ccccn1)Oc1ccccc1` (configuration not stated) it is inactive: 1.37%.
On to `Cc1cc(C)cc(OP(C)(=O)Nc2cccc(C(F)(F)F)c2)c1` (configuration not stated), for which the inhibition is inactive: -6.24%.
With `COc1ccc(OP(C)(=O)Nc2ccccc2Br)cc1` (configuration not stated), the inhibition was inactive: -3.81%.
As for `COc1ccccc1OP(C)(=O)Nc1ccc(C)c(C)c1` (configuration not stated), the inhibition is inactive: 1.66%.
Consider `Cc1nc2ccc3ccccc3c2o1.O=[N+]([O-])c1cc([N+](=O)[O-])c(O)c([N+](=O)[O-])c1`, for which the inhibition is inactive: -0.69%.
The figure for `CP(=O)(Nc1ccc(Cl)cc1Cl)Oc1ccccc1` (configuration not stated) is inactive: -1.06%; for `CP(=O)(OCCOc1ccccc1)OCCOc1ccccc1` it is inactive: -4.96%; for `O=[N+]([O-])c1cc([N+](=O)[O-])c(Nc2cccnc2)c([N+](=O)[O-])c1` it is inactive: 5.52%.
The figure for `Cc1cccc(C)c1OP(C)(N)=O` (configuration not stated) is inactive: -1.22%; for `CC(C)(C)c1ccc(OP(C)(=O)Nc2ccc(SC(F)(F)F)cc2)cc1` (configuration not stated) it is inactive: -7.06%.
In the case of `O=[N+]([O-])c1ccc2c(c1)C=Nc1ccccc1O2`, the inhibition was inactive: 11.2%.
Turning to `CCOC(=O)c1ccc(NP(C)(=O)Oc2ccccc2)cc1` (configuration not stated), the inhibition is inactive: 7.5%.
Regarding `Cc1ccc(NP(C)(=O)Oc2ccccc2)c(C)c1` (configuration not stated), the inhibition was inactive: -4.3%.
The result for `COc1ccccc1OP(C)(=O)Nc1ccc(C)cc1` (configuration not stated) reads inactive: 4.58%; that for `COc1ccc(OP(C)(=O)Nc2cccc(F)c2)cc1` (configuration not stated), inactive: 8.68%.
For the compound `COc1ccccc1OP(C)(=O)Nc1cc(Cl)ccc1C` (configuration not stated), the inhibition was inactive: -4.12%.
`Cc1cc(C)cc(OP(C)(N)=O)c1` (configuration not stated): the inhibition was inactive: 0%.
With `CCN(CC)CCCOC(=O)C(O)(c1ccccc1)c1ccccc1`, the inhibition is inactive: 6.58%.
The figure for `CP(=O)(Oc1ccccc1)OC(c1ccccc1)C(F)(F)F` (configuration not stated) is inactive: 6.39%; for `CP(=O)(Nc1ccc(SC(F)(F)F)cc1)Oc1ccc(Cl)cc1` (configuration not stated) it is inactive: 0.29%; for `Cc1cccc(C)c1OP(C)(=O)Nc1ccc(SC(F)(F)F)cc1` (configuration not stated) it is inactive: -4.87%.
Regarding `Cc1cc(C)cc(OP(C)(=O)Nc2ccc(SC(F)(F)F)cc2)c1` (configuration not stated), the inhibition was inactive: -1.85%.
The figure for `CP(=O)(NC(=O)Nc1ccccc1)Oc1ccccc1` (configuration not stated) is inactive: 4.47%.
